Source: PMC7052193, “Nanobody-enabled monitoring of kappa opioid receptor states” (Nature Communications, 2020)

The chains behind the UniProt entries cited, without tags or fusion partners.
UniProt P28223, whole entry: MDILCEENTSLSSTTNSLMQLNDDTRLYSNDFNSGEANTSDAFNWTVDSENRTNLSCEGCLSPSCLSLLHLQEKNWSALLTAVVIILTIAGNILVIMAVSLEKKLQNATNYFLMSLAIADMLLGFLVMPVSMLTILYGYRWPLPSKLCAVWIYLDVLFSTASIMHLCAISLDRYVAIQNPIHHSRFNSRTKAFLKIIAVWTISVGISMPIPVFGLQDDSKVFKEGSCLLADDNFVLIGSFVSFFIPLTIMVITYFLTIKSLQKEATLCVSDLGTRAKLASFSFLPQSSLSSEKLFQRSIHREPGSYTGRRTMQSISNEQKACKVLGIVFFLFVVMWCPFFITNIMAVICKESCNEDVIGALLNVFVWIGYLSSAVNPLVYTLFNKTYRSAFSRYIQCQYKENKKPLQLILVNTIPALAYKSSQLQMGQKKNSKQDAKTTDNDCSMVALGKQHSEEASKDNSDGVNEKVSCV

Molecular target: T1, 5-HT2AR (Homo sapiens, UniProt P28223)
T1 construct: expressed in transfected cells; host or cells: HEK 293T
Format: cell-based
Settings: 5-HT2AR wt, Log [Drug]

## NCCc1c[nH]c2ccc(O)cc12 [5-HT]
M = -8
  Net BRET G protein activation, source data Figure 5c: 32.7164 and 47.4294 and 40.3989
M = -9
  Net BRET G protein activation, source data Figure 5c: 66.9967 and 80.0215 and 73.6581
M = -10
  Net BRET G protein activation, source data Figure 5c: 93.6917 and 90.4905 and 92.6591
M = -11
  Net BRET G protein activation, source data Figure 5c: 73.653 and 95.9238 and 85.7404
M = -12
  Net BRET G protein activation, source data Figure 5c: 94.9129 and 91.3429 and 93.6659

Where “and” joins values, the source holds several entries; their conditions need not be identical. Equal values may be shown once. Read-outs that look alike come from different tables or passages of the source.
